scFv variants of Ab-95 (light chain) against a SARS-CoV-2 spike peptide

Data: MIT Lincoln Laboratory AlphaSeq set, Engelhart et al. 2022, doi:10.1038/s41597-022-01779-4, as distributed in FLAb.

The target is the same throughout: PDVDLGDISGINAS, from the HR2 region of SARS-CoV-2 spike.

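The starting antibody came from a phage panning campaign against this peptide. Library AAYL52 holds single substitutions and randomly drawn double and triple substitutions in the CDRs. The assay is AlphaSeq: two haploid yeast populations carry antibody and antigen on their surface. The frequency of each diploid, read from paired DNA barcodes, reflects how well the two displayed proteins bind. Each replicate has its own calibration line, from reference interactions of the BCL2 family. There are three technical replicates.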

Parent: Ab-95, a human scFv built as VH, a 15-residue (Gly4Ser)3 linker, VL. Only the CDRs of the light chain vary.
VH: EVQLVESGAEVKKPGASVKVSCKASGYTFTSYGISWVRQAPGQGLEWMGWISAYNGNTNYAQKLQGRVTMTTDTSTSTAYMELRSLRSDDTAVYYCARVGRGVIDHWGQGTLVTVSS
VL: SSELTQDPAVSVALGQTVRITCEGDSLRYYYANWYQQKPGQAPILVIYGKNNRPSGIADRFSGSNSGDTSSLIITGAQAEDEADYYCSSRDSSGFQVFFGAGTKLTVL

Substitutions are numbered in sequence along the VL above, starting at 1 (not Kabat).
Numbers give log10(Kd / nM), so 0 is 1 nM and 3 is 1 µM. Smaller is tighter.
Replicates are averaged; those with no signal do not enter the mean.
"nd" means that the variant was in the library but no mating with the target was seen in that replicate; the authors take this as a sign of poor binding, and no number exists.

{"changes": "Y29V+A32P+K50G", "log10 Kd, replicates": "2.24 2.25 1.90", "log10 Kd (nM), mean": "2.13", "control signals": "6 of 9 (4.01)"}
{"changes": "R28W+F98W", "log10 Kd, replicates": "3.33 3.63 3.46", "log10 Kd (nM), mean": "3.48", "control signals": "4 of 9 (4.25)"}
{"changes": "L27V+S93A", "log10 Kd, replicates": "2.51 3.36 nd", "log10 Kd (nM), mean": "2.93", "control signals": "3 of 9 (3.47)"}
{"changes": "A32K+S88Y+G94H", "log10 Kd, replicates": "nd 4.83 nd", "log10 Kd (nM), mean": "4.83", "control signals": "3 of 9 (3.15)"}
{"changes": "G94I+Q96N", "log10 Kd, replicates": "nd nd nd", "log10 Kd (nM), mean": "nd", "control signals": "2 of 9 (4.23)"}
{"changes": "N52A+S92V+Q96N", "log10 Kd, replicates": "2.49 2.19 3.05", "log10 Kd (nM), mean": "2.58", "control signals": "1 of 9 (3.99)"}
{"changes": "Y31T+S92P", "log10 Kd, replicates": "2.04 1.77 1.11", "log10 Kd (nM), mean": "1.64", "control signals": "2 of 9 (3.57)"}
{"changes": "S26L+N52V", "log10 Kd, replicates": "3.00 1.98 2.64", "log10 Kd (nM), mean": "2.54", "control signals": "5 of 9 (4.00)"}
{"changes": "D25T+Y29E+S89R", "log10 Kd, replicates": "2.26 3.01 2.28", "log10 Kd (nM), mean": "2.52", "control signals": "5 of 9 (3.59)"}
{"changes": "P54M+S93L+F98Q", "log10 Kd, replicates": "3.81 nd 2.42", "log10 Kd (nM), mean": "3.11", "control signals": "2 of 9 (3.88)"}
{"changes": "D25V+A32L+G94F", "log10 Kd, replicates": "nd nd nd", "log10 Kd (nM), mean": "nd", "control signals": "0 of 9"}
{"changes": "G24C+D25A", "log10 Kd, replicates": "3.03 2.73 3.28", "log10 Kd (nM), mean": "3.01", "control signals": "3 of 9 (4.01)"}
{"changes": "S89I+S93A", "log10 Kd, replicates": "2.71 2.39 2.08", "log10 Kd (nM), mean": "2.40", "control signals": "3 of 9 (3.75)"}
{"changes": "R28W+D91S+F95I", "log10 Kd, replicates": "nd nd nd", "log10 Kd (nM), mean": "nd", "control signals": "1 of 9 (2.44)"}
{"changes": "D25K+G94M+F95L", "log10 Kd, replicates": "4.00 nd 3.09", "log10 Kd (nM), mean": "3.54", "control signals": "2 of 9 (3.71)"}
{"changes": "S89A+G94M", "log10 Kd, replicates": "1.92 1.88 1.84", "log10 Kd (nM), mean": "1.88", "control signals": "5 of 9 (3.41)"}
{"changes": "L27I+R28V+S88F", "log10 Kd, replicates": "3.37 3.26 nd", "log10 Kd (nM), mean": "3.32", "control signals": "0 of 9"}
{"changes": "N51A+S55Q+V97N", "log10 Kd, replicates": "2.56 3.02 3.08", "log10 Kd (nM), mean": "2.89", "control signals": "3 of 9 (3.60)"}
{"changes": "D25N+S26L+S89A", "log10 Kd, replicates": "2.34 2.28 1.81", "log10 Kd (nM), mean": "2.14", "control signals": "4 of 9 (4.11)"}
{"changes": "Y30A+R53L+S88Y", "log10 Kd, replicates": "3.07 2.69 2.89", "log10 Kd (nM), mean": "2.88", "control signals": "4 of 9 (3.45)"}
{"changes": "E23F+S26T+Y31K", "log10 Kd, replicates": "2.30 1.90 1.51", "log10 Kd (nM), mean": "1.91", "control signals": "4 of 9 (4.25)"}
{"changes": "S55M+F95V+V97A", "log10 Kd, replicates": "2.12 2.31 3.65", "log10 Kd (nM), mean": "2.69", "control signals": "1 of 9 (3.60)"}
{"changes": "Y30K+S88A+F98Q", "log10 Kd, replicates": "2.15 2.32 2.10", "log10 Kd (nM), mean": "2.19", "control signals": "3 of 9 (3.51)"}
{"changes": "G49S", "log10 Kd, replicates": "3.69 3.08 3.03", "log10 Kd (nM), mean": "3.27", "control signals": "3 of 9 (4.67)"}
{"changes": "F95M+Q96I+V97W", "log10 Kd, replicates": "4.36 5.02 nd", "log10 Kd (nM), mean": "4.69", "control signals": "5 of 9 (4.34)"}
{"changes": "G49C+G94Y+F98V", "log10 Kd, replicates": "nd nd nd", "log10 Kd (nM), mean": "nd", "control signals": "1 of 9 (5.05)"}
{"changes": "G24P+R90S+F98C", "log10 Kd, replicates": "3.72 4.99 nd", "log10 Kd (nM), mean": "4.36", "control signals": "6 of 9 (4.15)"}
{"changes": "K50W+N51H+S88E", "log10 Kd, replicates": "3.92 4.93 4.19", "log10 Kd (nM), mean": "4.35", "control signals": "5 of 9 (4.05)"}

2 of these entries, quoted again:

{"changes": "Y30A+R53L+S88Y", "log10 Kd, replicates": "3.07 2.69 2.89", "log10 Kd (nM), mean": "2.88", "control signals": "4 of 9 (3.45)"}
{"changes": "S89A+G94M", "log10 Kd, replicates": "1.92 1.88 1.84", "log10 Kd (nM), mean": "1.88", "control signals": "5 of 9 (3.41)"}

Nonspecific signal, from three strains lacking the peptide, appeared in 28% of pairings of library AAYL52, centred on 3.91 (5% of these signals below 2.90); values are not corrected for it. The control count says in how many pairings with the empty strains this scFv gave a signal, with their mean in brackets.
For reference, the parent read 2.31 as the reference entry and 2.25 as a member of this library.